Results on seven compounds are retold here after patent US20050101623A1 (Pharmacia Corporation, priority 2003, published 2005).

Sequences of proteins named here, by UniProt entry; tags and fusion partners are left off.
UniProt P49137, whole entry, species assumed: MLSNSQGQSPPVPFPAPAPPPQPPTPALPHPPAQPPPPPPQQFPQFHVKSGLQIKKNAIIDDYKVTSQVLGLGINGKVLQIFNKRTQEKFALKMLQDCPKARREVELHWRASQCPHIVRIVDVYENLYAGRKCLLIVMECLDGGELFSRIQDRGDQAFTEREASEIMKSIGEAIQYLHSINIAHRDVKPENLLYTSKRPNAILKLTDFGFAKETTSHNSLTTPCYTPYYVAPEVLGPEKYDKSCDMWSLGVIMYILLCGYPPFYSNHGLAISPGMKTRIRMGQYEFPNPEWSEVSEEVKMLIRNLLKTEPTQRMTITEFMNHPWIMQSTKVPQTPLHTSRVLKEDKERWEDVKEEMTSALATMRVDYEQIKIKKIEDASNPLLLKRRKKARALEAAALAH

The target of the assay is Recombinant MAPKAPK2 (MK-2) (Homo sapiens, UniProt P49137). Description: Determination of MK-2 IC50 (phosphorylation of HSP-peptide, anion exchange resin capture assay). Type of assay: biochemical.
[1] abbreviates: additional values are replicate IC50 experiments, read-out: MK-2 Avg. IC50.
[2] abbreviates: MK-2 Avg. IC50, additional values are replicate IC50 experiments.

Counter-ions that a name gives are not always drawn. Like-named read-outs stand apart in the source and are kept apart here. A value given as a limit tells only on which side of the number the result lay.

A word on the IC50: it is the concentration that inhibits the measured activity by half. Take `CSc1ccc2[nH]c3c(c2c1)C1CCN(C1)C3C(=O)O` (stereo not shown) [No. 4, 7-(methylthio)-3,4,5,10-tetrahydro-1H-2,5-methanoazepino[3,4-b]indole-1-carboxylic acid]: under setting [1], the IC50 stood at 0.79 µM.
As for `COc1ccc2[nH]c3c(c2c1)C1CCN(C1)C3C(=O)OC(C)C` (stereo not shown) [No. 42, 1-adamantyl 7-methoxy-3,4,5,10-tetrahydro-1H-2,5-methanoazepino[3,4-b]indoie-1-carboxylate hydrochloride], under setting [2], the IC50 is 9.85 µM.
For `COC(=O)C1c2[nH]c3ccc(O)cc3c2C2CCN1C2` (stereo not shown) [No. 44, 7-methoxy-N-methyl-3,4,5,10-tetrahydro-1H-2,5-methanoazepino[3,4-b]indole-1-carboxamide], the IC50 under setting [1] was determined as 5.38 µM.
Turning to `COc1ccc2[nH]c3c(c2c1)C1CCN(C1)C3C(=O)OC12CC3CC(CC(C3)C1)C2` (stereo not shown) [compound 42], under setting [1], the IC50 came out at 149 µM.
On to `COc1ccc2[nH]c3c(c2c1)C1CCN(C1)C3C(=O)OC1C(C)(C)CCCC1(C)C` (stereo not shown) [compound 43, 2,2,6,6-tetramethylcyclohexyl 7-methoxy-3,4,5,10-tetrahydro-1H-2,5-methanoazepino[3,4-b]indole-1-carboxylate trifluoroacetate], for which, under setting [2], the IC50 was 151 µM.
On the same count and under the same terms, in the case of `COCCNC(=O)C1c2[nH]c3ccc(OC)cc3c2C2CCN1C2` (stereo not shown) [compound 49] it was above 200 µM; in that of `COc1ccc2[nH]c3c(c2c1)C1CCN(C1)C3C(=O)OC1CCCCC1` (stereo not shown) [hydrochloride], 57.3 µM.
